# Measured affinities in a library of Ab-14 heavy chain variants

Binding partner: SARS-CoV-2 spike HR2 peptide, sequence PDVDLGDISGINAS.

Each scFv is VH, a (GGGGS)3 linker, VL, as in the parent Ab-14, and differs from it in the CDRs of the heavy chain only.
VH: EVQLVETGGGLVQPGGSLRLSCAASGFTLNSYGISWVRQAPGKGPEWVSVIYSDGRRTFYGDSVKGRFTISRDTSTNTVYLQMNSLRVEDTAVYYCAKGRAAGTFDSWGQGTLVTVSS
VL: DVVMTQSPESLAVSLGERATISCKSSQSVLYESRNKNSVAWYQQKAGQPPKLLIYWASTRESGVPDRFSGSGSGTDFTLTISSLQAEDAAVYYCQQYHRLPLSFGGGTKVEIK

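These sequences belong to a second round, designed from the earlier measurements on random variants of the parent. Group labels follow the data file (Ctrl: baseline library sampled from a position-specific scoring matrix, with some repeated check sequences; GPLM: also part of the Gaussian process libraries; Gen: genetic algorithm; a sequence that several methods proposed may carry one label only). AlphaSeq pools MATa yeast showing the antibodies with MATalpha yeast showing the peptide. The frequency of each diploid, read from paired DNA barcodes, reflects how well the two displayed proteins bind. Scores were corrected for input abundance and mapped to Kd with protein pairs of known affinity run in the same pool. The assay was run in six technical replicates.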

Substitutions are numbered in sequence along the VH above, starting at 1 (not Kabat). Numbers give log10(Kd / nM), so 0 is 1 nM and 3 is 1 µM. Smaller is tighter. Where no diploid with the target was found in that replicate, the entry reads "nd": below detection, most likely a poor binder, though not proof of it.

changes,group,log10 Kd (nM) by replicate,control signals
S35Q/F59A/G61S/A102S/T104Q,Ctrl,nd nd nd nd nd nd,0/18
A102V/S107T,Ctrl,1.63 1.35 nd 1.62 1.03 1.17,0/18
T28H/I51D/R56L/G61S/T104R/D106Y,Ctrl,nd nd nd nd nd nd,0/18
S53R/G99A/R100E/S107E,Ctrl,nd nd nd nd nd nd,0/18
G99I/A101D/A102M,Ctrl,nd nd nd nd nd nd,0/18
S31E/R100T/T104C,Ctrl,nd nd nd nd nd nd,0/18
D62Q/R100D,Ctrl,1.75 2.02 1.49 1.88 nd 2.20,0/18
A102M/G103S,Ctrl,nd nd nd nd nd nd,1/18 (2.12)
R56L/V64F,Ctrl,2.57 nd 1.54 nd 1.81 nd,0/18
I34G/F59A/A101K,Ctrl,nd nd nd nd nd nd,0/18
I34V/R100T,Ctrl,0.70 nd nd nd nd nd,0/18
A101L/T104V,Ctrl,nd nd nd nd nd nd,0/18
I34R/A102D,Ctrl,nd nd nd nd nd nd,1/18 (1.37)
L29I/G61H/G99I/F105T,Ctrl,nd nd nd nd nd nd,0/18
T28Q/S53F/G103L/T104R/D106C,Ctrl,nd nd nd nd nd 2.19,0/18
G26Q,Ctrl,nd nd nd nd nd nd,0/18
S31D/G55Q/R100T,Ctrl,nd nd nd nd nd nd,0/18
F27N/T28A/R56M,Ctrl,nd nd nd nd nd nd,1/18 (2.17)
R57D,Ctrl,nd nd nd nd nd nd,0/18
G61S/S63D/R100G,Ctrl,nd 1.00 1.24 3.00 2.37 0.50,0/18
T28N/T104L/D106S/S107W,Ctrl,nd nd nd nd nd nd,1/18 (2.27)
N30Q/A101E,Ctrl,0.12 -0.20 nd nd 0.73 nd,0/18
L29I/R56K/R100Q/D106L,Ctrl,nd nd nd nd nd nd,0/18
T28W/T104I/D106R,Ctrl,nd nd nd nd nd nd,0/18
T28D/A101I,Ctrl+GPLM_Gen,-0.11 0.10 0.54 0.57 0.17 0.36; 0.07 -0.05 0.34 0.01 0.15 0.44,0/36
F27R/T28S/N30E,Ctrl,nd nd nd nd nd nd,0/18
G61E/D106P,Ctrl,nd nd nd nd nd 1.30,0/18
G61L/A102D/T104P/F105K,Ctrl,nd nd nd nd nd nd,0/18
T28D/N30M/S31E,Ctrl,2.27 1.73 0.86 0.98 1.31 3.40,1/18 (2.24)
T28N/S31E/F59A/D62G/R100T/S107Q,Ctrl,0.18 0.46 0.95 0.72 1.22 0.63,0/18
S31D/R100S/S107Q,Ctrl,nd -0.20 -0.52 nd -0.07 0.52,0/18
L29V/D62P,Ctrl,1.56 2.74 nd nd nd nd,0/18
T28H/G103L,Ctrl,nd nd nd nd nd nd,0/18
S31E/K65S/A101V,Ctrl,1.02 0.80 0.29 -0.18 0.87 0.46,1/18 (2.73)
G103C,Ctrl,nd nd nd nd 2.06 nd,0/18
T58Q/S107E,Ctrl,nd nd 1.84 nd nd nd,0/18
T28D/N30M/S53A/G61Y/A101E/T104C,Ctrl,nd nd nd 1.72 nd 1.86,0/18
F105M/S107V,Ctrl,nd nd nd nd nd nd,0/18
S31D/R100T,Ctrl,0.18 0.87 1.45 0.50 1.04 0.55,0/18
T28W/F59W/G61D/A101H,Ctrl,nd 2.06 2.93 nd nd 3.85,1/18 (1.85)
S31D/S63D,Ctrl,-0.19 0.52 0.44 0.28 -0.20 0.59,0/18
R100M/S107L,Ctrl,nd nd nd nd 1.49 nd,0/18
S31Q/D62G,Ctrl,nd nd 0.99 nd nd nd,0/18

A selection of 5 entries from above:

| changes | group | log10 Kd (nM) by replicate | control signals |
|---|---|---|---|
| T28H/G103L | Ctrl | nd nd nd nd nd nd | 0/18 |
| I34V/R100T | Ctrl | 0.70 nd nd nd nd nd | 0/18 |
| F27N/T28A/R56M | Ctrl | nd nd nd nd nd nd | 1/18 (2.17) |
| S35Q/F59A/G61S/A102S/T104Q | Ctrl | nd nd nd nd nd nd | 0/18 |
| T28D/N30M/S31E | Ctrl | 2.27 1.73 0.86 0.98 1.31 3.40 | 1/18 (2.24) |

The authors' rule: three or more of the six replicates give a measured affinity, fewer mean a poor binder. The parent sequence was in this pool as ten entries: three were never detected, three once, and four in most replicates, with averages from 0.34 to 2.37. Empty control strains, which show no peptide, gave a signal in 1% of pairings with all heavy chain designs; the median was 2.08 and 95% of these signals were weaker than 0.84. No background was subtracted. For each scFv, signals with the empty controls are counted beside the result, with their mean in brackets. The range of this assay differs from that of the first round, and the authors advise against merging the two. Where one sequence has several entries in the source, the replicates are listed entry by entry, parted by semicolons.

Values reported by Li et al. 2023, doi:10.1038/s41467-023-39022-2 (FLAb copy).